For this assay, the target named is Mu-type opioid receptor (Rattus norvegicus, UniProt P33535). The assay can be described thus: Binding affinity at Opioid receptor mu 1 by displacement of [3H]DAMGO in rat brain membrane. The class given is cell membranes. In general terms: Loss of bound radioactivity is the signal in a displacement assay; it reports binding, not function.

The chains behind the UniProt entries cited, without tags or fusion partners.
UniProt P33535, whole entry: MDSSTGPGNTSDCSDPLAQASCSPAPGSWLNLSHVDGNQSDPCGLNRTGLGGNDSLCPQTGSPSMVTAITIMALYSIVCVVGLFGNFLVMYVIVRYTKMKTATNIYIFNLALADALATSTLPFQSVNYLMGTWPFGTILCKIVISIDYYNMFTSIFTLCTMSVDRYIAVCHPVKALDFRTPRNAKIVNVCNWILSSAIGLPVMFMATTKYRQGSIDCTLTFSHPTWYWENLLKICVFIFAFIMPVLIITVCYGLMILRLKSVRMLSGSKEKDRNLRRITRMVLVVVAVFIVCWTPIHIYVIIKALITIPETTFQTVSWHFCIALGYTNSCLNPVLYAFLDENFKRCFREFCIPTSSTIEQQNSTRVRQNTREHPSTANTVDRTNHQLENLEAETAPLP

For `Oc1ccc2c3c1O[C@H]1c4[nH]c5ccccc5c4C[C@@]4(O)[C@@H](C2)N(CC2CC2)CC[C@]314` [NALTRINDOLE], the affinity, expressed as Ki, was 151 nM.

The record behind these values is ChEMBL document CHEMBL1149096 (J Med Chem, 2004).
